Data taken from PMC7723054.
The other results are listed elsewhere or left out.

T1: LIN28A (human?, UniProt Q9H9Z2 1-209)
T1 sequence: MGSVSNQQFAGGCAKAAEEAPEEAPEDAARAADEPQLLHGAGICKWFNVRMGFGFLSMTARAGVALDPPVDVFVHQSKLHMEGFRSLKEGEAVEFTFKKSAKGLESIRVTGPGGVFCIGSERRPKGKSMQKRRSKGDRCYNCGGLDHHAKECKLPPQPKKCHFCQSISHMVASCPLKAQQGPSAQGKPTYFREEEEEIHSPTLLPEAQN

T2: CIRBP (Homo sapiens, UniProt Q14011 1-172)
T2 sequence: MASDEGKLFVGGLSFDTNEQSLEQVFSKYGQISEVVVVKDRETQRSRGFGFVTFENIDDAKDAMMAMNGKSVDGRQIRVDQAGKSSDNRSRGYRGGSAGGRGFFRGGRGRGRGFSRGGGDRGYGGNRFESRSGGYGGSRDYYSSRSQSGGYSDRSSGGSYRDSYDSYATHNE

T3: DHX36 (Homo sapiens, UniProt Q9H2U1 1-1008)
T3 sequence: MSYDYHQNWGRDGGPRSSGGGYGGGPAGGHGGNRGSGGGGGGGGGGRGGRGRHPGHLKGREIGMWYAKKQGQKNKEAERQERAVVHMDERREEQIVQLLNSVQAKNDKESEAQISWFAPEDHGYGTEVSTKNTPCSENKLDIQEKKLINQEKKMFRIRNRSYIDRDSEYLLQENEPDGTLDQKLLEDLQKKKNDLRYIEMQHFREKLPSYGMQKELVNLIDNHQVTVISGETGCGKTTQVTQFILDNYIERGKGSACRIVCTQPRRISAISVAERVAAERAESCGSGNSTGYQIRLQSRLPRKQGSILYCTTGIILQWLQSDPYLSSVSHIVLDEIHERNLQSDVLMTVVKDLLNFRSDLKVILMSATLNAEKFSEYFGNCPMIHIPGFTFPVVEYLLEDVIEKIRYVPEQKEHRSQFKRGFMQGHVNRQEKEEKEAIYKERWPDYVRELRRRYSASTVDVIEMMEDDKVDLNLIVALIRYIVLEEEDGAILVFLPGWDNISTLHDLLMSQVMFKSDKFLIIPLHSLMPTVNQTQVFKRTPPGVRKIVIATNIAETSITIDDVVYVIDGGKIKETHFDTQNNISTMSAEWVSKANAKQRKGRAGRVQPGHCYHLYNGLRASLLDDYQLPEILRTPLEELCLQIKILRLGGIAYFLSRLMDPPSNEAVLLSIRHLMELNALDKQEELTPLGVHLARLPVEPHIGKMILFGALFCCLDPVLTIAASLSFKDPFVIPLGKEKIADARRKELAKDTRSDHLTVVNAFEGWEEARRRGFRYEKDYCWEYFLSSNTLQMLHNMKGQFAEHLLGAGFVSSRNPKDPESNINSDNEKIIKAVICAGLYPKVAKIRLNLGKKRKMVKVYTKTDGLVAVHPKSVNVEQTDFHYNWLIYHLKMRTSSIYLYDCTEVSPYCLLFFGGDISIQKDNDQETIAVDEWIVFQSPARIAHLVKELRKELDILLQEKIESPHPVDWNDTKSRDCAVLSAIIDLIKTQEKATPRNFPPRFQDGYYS

B1: hsa-mir-2355 (structured_RNA)
RNA: GGGAACUAUACAACCCUGUUUCGGUUACGGUGUACGAAGUUUCAGCACAAUAUGCUAUUAUAAUCGUAUGGCAUUGUGCUGAAGCUUCGUGCAC
B2: hsa-mir-6718 (structured_RNA)
RNA: GGGACAGUACGUGUAAGCCCGGUUCAGGGGUGUACGAAGUUUCAGCAUGAUAUAUUGUGAGAGCCAUGUCAUGCUGAAGCUUCGUGCAC
B3: hsa-mir-548ae-1 (structured_RNA)
RNA: GGGAGACGCCUUUAAAAGUGAAUCGAAUGGUGUACGAAGUUUCAGCUUUGCCAUUAUAAUGGCAAAGCUGAAGCUUCGUGCAC
B4: hsa-mir-4299 (structured_RNA)
RNA: GGGAAUUACAUCUCGGGUGCGUCCAAAUGGUGUACGAAGUUUCAGCGUGUUUUCUCCUUUAGAGAGAGCUGGCUGAAGCUUCGUGCAC
B5: hsa-mir-548g (structured_RNA)
RNA: GGGAACUUCCCUAACCGUGAACUAUCUGGGUGUACGAAGUUUCAGCUUUUUGCAUUACGUUCUAUGGCAAAAGCUGAAGCUUCGUGCAC
B6: hsa-mir-3118-2_3118-3_3118-4 (structured_RNA)
RNA: GGGAAUCGUGCGAAGCAGAUUAACCCACGGUGUACGAAGUUUCAGCCACACACAAUCACCGUGUGGCUGAAGCUUCGUGCAC
B7: hsa-mir-4503 (structured_RNA)
RNA: GGGAAGGAGAACGUUUGACUAGAGAAUAGGUGUACGAAGUUUCAGCUUUACAUAUAAAUUUCUAUUUGUGCUGAAGCUUCGUGCAC
B8: hsa-mir-6856 (structured_RNA)
RNA: GGGACCUUAGAUUACAGAGGUAAGAAGGGGUGUACGAAGUUUCAGCUGUGGCAGUGGCAGAGGUCGCUACAGCUGAAGCUUCGUGCAC
B9: hsa-mir-3974 (structured_RNA)
RNA: GGGAAACGUCUUGGCAAGCGACGUCUCCGGUGUACGAAGUUUCAGCAUGCACCCAUAUUUUAAUAUCAAACUAUGACAAAUUGCUGAAGCUUCGUGCAC
B10: hsa-mir-221 (structured_RNA)
RNA: GGGACACUGGGAUGCCAGUUAGGCCUUAGGUGUACGAAGUUUCAGCAUUUCUGUGUUCGUUAGGCAACAGGCUGAAGCUUCGUGCAC
B11: hsa-mir-671 (structured_RNA)
RNA: GGGACAUCUACACGACACCUUGCUACGGGGUGUACGAAGUUUCAGCUGGAGGUGAUGGAUGUUUUCCUCCGGCUGAAGCUUCGUGCAC
B12: hsa-mir-584 (structured_RNA)
RNA: GGGAAAGUGACGAGAGCGUUAUGUCCUCGGUGUACGAAGUUUCAGCCUGAGGAAUUUGCUGGGAUAUGUCAGGCUGAAGCUUCGUGCAC
B13: PARIS_ID33 (structured_RNA)
RNA: GGGAACAGCCCGUAGUGGUAAAUUUGAGGGUGUACGAAGUUUCAGCCUGGUCUUGUAAUUAAAAUUCAAACACUAUAGAAAAAGGCCAUGUAGAAGAUAAAAGUUCCUCUAUAAUCCCGGGCUGAAGCUUCGUGCAC
B14: hsa-mir-129-1 (structured_RNA)
RNA: GGGAAGGAGGUCUCACCGAUCCGCAUUAGGUGUACGAAGUUUCAGCGCUUGCUGUUCCUCUCAACAGUAGUCAGGAAGCGCUGAAGCUUCGUGCAC
B15: hsa-mir-7851 (structured_RNA)
RNA: GGGAAGGUCCCCUCCAGCAUCGAGUUUAGGUGUACGAAGUUUCAGCAGUAGCUGGGAAUACAGGUGUGUGCCACCAUGCCUCUACAAGCUACCGCUGAAGCUUCGUGCAC
B16: hsa-mir-619 (structured_RNA)
RNA: GGGACGAGUAGUCUCACAAUCGCCCGAUGGUGUACGAAGUUUCAGCAGCCACUGCGGUCGACCAUGACCUGGAGCUGAAGCUUCGUGCAC
B17: hsa-mir-3151 (structured_RNA)
RNA: GGGAACCUUCGCGCGAACUGCUCAUGUUGGUGUACGAAGUUUCAGCCAGGUGCCUCAAAGGGCAUCCCACCUGGCUGAAGCUUCGUGCAC
B18: NEAT1_ParasoR_ID2 (structured_RNA)
RNA: GGGCAGGGCUUACACGAACGGCUGUAAAGGUGUACGAAGUUUCAGCCAUAUAUGAAACUUAAGUUUCUGCUAGUUGCCAUCUUUGAUCUAUCAUGUAUGGCUGAAGCUUCGUGCAC
B19: hsa-mir-342 (structured_RNA)
RNA: GGGAAAAGAAUCAAUUCAGCGGUGACCUGGUGUACGAAGUUUCAGCUUGAGGGACAUGGUUAAUGGAAUUGUCUCAGCUGAAGCUUCGUGCAC
B20: hsa-mir-4783 (structured_RNA)
RNA: GGGAAUAACCCAUAGAACGAGACGGGAUGGUGUACGAAGUUUCAGCCGGGCUGAUUGCGCUAACAGUGGCCCCGCUGAAGCUUCGUGCAC
B21: PARIS_ID27 (structured_RNA)
RNA: GGGAACUUGAGUUGAAGAGCCUAACCGUGGUGUACGAAGUUUCAGCCAUGUCACCCAAAGGGGUAAUUGUCCUACUGGUGGUCUGUAAGAUGAGUUAGGGUGACUUGGCUGAAGCUUCGUGCAC
B22: hsa-mir-30c-1 (structured_RNA)
RNA: GGGACUCUAGCCUAUUUCGUCUAGCACGGGUGUACGAAGUUUCAGCUCAGCUGUGAGCUCAAGGUGGCUGGGCUGAAGCUUCGUGCAC

These binders were tested against U1A (Homo sapiens, UniProt P09012) (assay: FOREST: bead pull-down of RNA structure library v1, barcode microarray; U1A/LIN28A: 20 mM HEPES pH 7.5, 80 mM KCl, 20 mM NaCl, 10% glycerol, 2 mM DTT, 0.1 ug/uL BSA, 4 C; BG4/CIRBP/DHX36: 10 mM Tris-HCl pH 7.5, 100 mM KCl (or LiCl),; high values mean tight binding).

Row | Binder | binding signal [z-score]
1 | B1 | 0.23
2 | B2 | 0.23
3 | B3 | 0.206
4 | B4 | 0.212
5 | B5 | 0.226
6 | B6 | 0.197
7 | B7 | 0.212
8 | B8 | 0.223
9 | B9 | 1.86
10 | B10 | 0.208
11 | B11 | 1.87
12 | B12 | 0.207
13 | B13 | 0.202
14 | B14 | 0.227
15 | B15 | 0.223
16 | B16 | 0.228
17 | B17 | 0.224
18 | B18 | 0.229
19 | B19 | 0.198
20 | B20 | 0.219
21 | B21 | 0.204
22 | B22 | 0.201

The binders below were run against T1, LIN28A in the same assay as above.

Row | Binder | binding signal [z-score]
23 | B1 | 0.503
24 | B2 | 1.72
25 | B3 | -1.75
26 | B4 | -1.1
27 | B5 | -0.242
28 | B6 | -1.17
29 | B7 | -0.628
30 | B8 | 0.888
31 | B9 | 0.666
32 | B10 | -0.188
33 | B11 | -0.366
34 | B12 | 0.713
35 | B13 | 0.153
36 | B14 | -0.168
37 | B15 | 1.49
38 | B16 | -1.06
39 | B17 | 0.0359
40 | B18 | -0.427
41 | B19 | 1.46
42 | B20 | -0.323
43 | B21 | 1.65
44 | B22 | -0.346

What follows are binders tested against T2, CIRBP in the same assay as above.

Row | Binder | binding signal [z-score]
45 | B1 | 0.736
46 | B2 | 0.505
47 | B3 | -0.301
48 | B4 | -0.233
49 | B5 | -0.654
50 | B6 | -0.951
51 | B7 | 1.26
52 | B8 | 0.501
53 | B9 | -1.02
54 | B10 | -0.187
55 | B11 | -0.521
56 | B12 | -1.34
57 | B13 | 0.855
58 | B14 | 0.879
59 | B15 | -0.0289
60 | B16 | 0.0336
61 | B17 | -0.886
62 | B18 | -0.586
63 | B19 | 1.76
64 | B20 | 0.174
65 | B21 | 0.00652
66 | B22 | -0.281

Each binder was assayed against T3, DHX36 in the same assay as above.

Row | Binder | binding signal [z-score]
67 | B1 | 0.607
68 | B2 | 1.03
69 | B3 | -0.442
70 | B4 | -1.13
71 | B5 | -0.0983
72 | B6 | -1.18
73 | B7 | -0.371
74 | B8 | 0.268
75 | B9 | -0.557
76 | B10 | 0.129
77 | B11 | -0.708
78 | B12 | -0.799
79 | B13 | 0.626
80 | B14 | 0.587
81 | B15 | -0.201
82 | B16 | -0.0708
83 | B17 | -0.105
84 | B18 | 0.639
85 | B19 | 0.473
86 | B20 | -0.362
87 | B21 | 0.621
88 | B22 | -0.85
